Laboratory results as given in patent US12102709B2, “Anti-obesity agent, anti-dementia agent, deodorant, anti-aging agent, anti-glycation agent, anti-type I allergy agent, hypotensive agent, flavor improving agent, muscle enhancing agent, and bone metabolism improving agent” (Mitsui Sugar Co., Ltd., priority 2018, dated 2024).

Tested on: MC3T3-E1 cells
Experiment: Osteoblast differentiation promotion test (ALP activity)
Type: cell-based, mouse
Conditions: extracts 100 μg/mL
Method: (Cells) • Mouse calvaria-derived cells MC3T3-E1 (Riken Cell Bank, RCB1126)
MC3T3-E1 cells were cultivated using a growth culture medium in a T-75 flask (75 cm^2 U-shaped canted neck cell culture flask, commercially available from Corning Co., Ltd.). The T-75 flask was put into a CO2 incubator (5% CO2, 37° C., wet) and the C2C12 cells were cultured. The culture medium was replaced every other day, and when an 80% confluence was reached, the cells were collected and used for the test.
Promoted osteoblast differentiation in MC3T3-E1 cells was confirmed using an alkaline phosphatase (ALP) activity, which is one of osteoblast differentiation markers, as an index.
Pre-cultured MC3T3-E1 cells were adjusted in a culture medium at 1.2×10^5 cells/0.2 mL/well and seeded in a 48-well plate. The next day, the culture medium was replaced with a culture medium containing 100 μg/mL of the extract A (Example j1-1), a culture medium containing 100 μg/mL of the extract W and 1% (v/v) ethanol (Example j1-2), a culture medium containing no extract (Comparative Example j1-1), a culture medium containing no extract but containing 1% (v/v) ethanol (Comparative Example j1-2), or a culture medium containing BMP-2 (Positive Control j1), and they were cultured for 7 days, for 14 days, and for 21 days. After culturing each day, the cells were washed once with PBS, and each plate was frozen and stored. The culture medium was replaced every 3 to 4 days.
The cells after freezing and storage were washed with PBS and then lysed with a cell lysis agent (Cell-LyEX1 containing 2 mM phenylmethylsulfonyl fluoride (PMSF)) at 100 μL/well. […] The amount of ALP in the cells was measured using an alkaline phosphatase activity measurement kit (LabAssay ALP). In this kit, the ALP activity was measured from the amount of p-nitrophenol per unit protein amount produced within a certain time. The amount of proteins in the solution was measured using a Micro BCA Protein Assay Reagent Kit. The test was performed 5 times, and the average value (n=5) of ALP activities was calculated.

Positive Control j1: Recombinant bone morphogenetic protein (Bone Morphogenetic Protein-2 (BMP-2))
ALP activity (On the 7th day of culture): 0.053 ± 0.006 unit/μg proteins
ALP activity (On the 14th day of culture): 0.217 ± 0.024 unit/μg proteins
ALP activity (On the 21st day of culture): 0.287 ± 0.005 unit/μg proteins
